## Ab-14 light chain CDR variants: yeast mating affinities

Values reported by Li et al. 2023, doi:10.1038/s41467-023-39022-2 (FLAb copy).

The target is the same throughout: PDVDLGDISGINAS, from the HR2 region of SARS-CoV-2 spike.

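The starting antibody came from a phage panning campaign against this peptide. These sequences belong to a second round, designed from the earlier measurements on random variants of the parent. Several design methods are mixed in this list. In AlphaSeq, yeast of one mating type display the scFv and yeast of the other type display the target. Binding brings cells together so that they mate, and sequencing counts the barcode pairs among the diploids. A regression on co-assayed BCL2-family reference pairs converts the normalised counts of each replicate to an apparent Kd. There are six technical replicates.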

Each scFv is VH, the linker GGGGSGGGGSGGGGS, VL, as in the parent Ab-14, and differs from it in the CDRs of the light chain only.
VH: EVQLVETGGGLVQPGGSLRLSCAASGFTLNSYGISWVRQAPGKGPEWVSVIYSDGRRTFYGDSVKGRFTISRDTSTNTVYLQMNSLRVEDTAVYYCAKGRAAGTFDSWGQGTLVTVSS
VL: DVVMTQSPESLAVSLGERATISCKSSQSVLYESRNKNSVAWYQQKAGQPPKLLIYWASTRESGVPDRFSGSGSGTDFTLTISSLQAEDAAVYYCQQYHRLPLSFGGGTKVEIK

Each variant is given by its three light chain CDRs, as the data file delimits them; those of the parent are KSSQSVLYESRNKNSVA, WASTRES, QQYHRLPLS. Affinities are written as log10 Kd with Kd in nM; a lower number is a better binder. An entry "n.d." has no value in the source: the pair was not observed among the diploids in that replicate. This suggests poor binding but is not conclusive. Of ten entries with the parent sequence, four were seen in most replicates (averages 0.34 to 2.37), three in one and three in none, so single entries are noisy. In the paper, a design with two or fewer of six values counts as a poor binder. Three control strains display no target. For all light chain designs, 4% of the pairings with them gave a signal, with a median of 2.64 and one signal in twenty below 1.59, so weak values seen in few replicates may be background. Values of this round are not directly comparable with the first-round values of the same sequences.

CDR-L1,CDR-L2,CDR-L3,log10 Kd (nM) by replicate
KLSGFHNVESINKSNVA,EMVTREN,QQYDRLPLS,2.41 2.19 2.02 2.37 2.06 2.11
ILSQSVLMGSHLKNSVA,QASTRFN,QQYHRLPLM,1.43 1.22 1.54 1.40 0.83 0.87
KSSQSVLFESRNKNSVA,WASTRAS,QQYHRLPLS,1.26 2.43 1.78 3.54 1.81 1.31
KVGQSVLYESRNQNSVA,WASTRES,QQYHGLPLS,1.35 1.73 1.55 2.98 1.47 2.38
KLSQSQLYESRNKNSVA,NASQRES,QDYHRLPLS,-0.11 -0.18 0.03 -0.12 0.04 0.35
ALSQSQGGESRNPNSVA,HASTRES,QQYHRLPLS,-0.29 -0.40 -0.52 -0.63 -0.61 -0.27
KSSQSVLYEFRNTNSVA,WASTRIS,QTYHKLPLS,n.d. n.d. n.d. n.d. n.d. n.d.
KSSQSVLYESRNKNSVS,WASTRES,QQYHRHPLS,n.d. n.d. n.d. n.d. n.d. n.d.
KLSATYRFESQNKNSIA,EMTTRES,QCYHRLPLS,1.94 1.63 3.08 2.36 1.63 3.21
KLRQSTAYLMENKNSVA,ELSTRGS,QQYFRLPLS,0.35 0.79 0.19 0.30 0.35 0.18
KSSQSWLYESRNKNSVA,GASVRES,QQYHRLPLS,0.12 0.05 -0.19 -0.15 0.02 0.12
MIQINQSNYDGMRSAIA,DTNLARM,QQYYHLPLM,0.46 0.54 0.62 0.10 0.45 0.74
TISQTAQQESHNKNSVA,DLNVRGS,QQYDRLPLS,n.d. 1.99 1.44 1.99 2.80 2.02
KSSQGVLYESRNQNSLA,YASTRES,QQPHRLPLW,n.d. n.d. n.d. n.d. n.d. n.d.
TLHNGDNHDQVSKYSIA,DATLINE,QQYARLPLE,0.07 0.32 0.30 0.02 0.20 0.60
KLKYQADHYGMNWNNVA,QADIRAP,QQYNKLPLN,0.49 0.54 0.40 0.37 0.30 0.35
RIQDHMAVGEMRHSSIA,EESYRMD,QQYSRLPLA,0.53 0.20 0.37 0.12 0.62 0.31
KIGHGLTTEMYNRNSVA,QTETRVS,QHYHRLPLS,2.33 1.83 1.58 1.48 1.93 2.29
KSSQSVLYMSRNKNGVA,GASTRES,QQYHRLPLS,1.16 1.57 0.80 1.83 1.00 0.95
KLGQGVLYQSRNKNSVA,GASTRES,QQYHRLPLS,-0.40 -0.30 -0.33 -0.29 -0.51 -0.21
KLRVSTMLESHNKNSIA,DLTTRGN,QQYHRLPLS,-0.35 -0.17 0.08 -0.47 -0.19 -0.25
KSSQSVLYESRMKNSVA,WASKRES,QQYHRWPLS,n.d. n.d. n.d. n.d. n.d. n.d.
KLSTSVMLESRNVNSVA,DASQREE,QQYHRLPLS,0.05 -0.11 -0.04 -0.30 -0.07 0.09
KLSQSQGGLQRNKNSVA,EASTREM,QQYHRLPLS,0.39 0.34 0.09 0.39 0.32 0.08
MISDLTMYGSRNVNSVA,DLSERGS,QQYHRLPLS,0.63 0.33 0.13 0.08 0.23 0.51
KISKPWELGEPSTNAVA,NADIANA,QQYSRLPLS,0.35 0.46 0.34 0.51 0.07 0.51
MVTQLMLWGWHAKNSIA,EAQTRLN,QQYDRLPLF,n.d. n.d. n.d. n.d. n.d. n.d.
KLMQEDEYQSRNPNSVA,HASERES,QQYHRLPLS,-0.94 -0.96 -1.32 -1.23 -0.82 -0.76
HLSQSWLYESRNKNSVA,NASTRLS,QQYHRLPLS,0.18 0.04 0.09 -0.24 -0.01 -0.02
KSSISYLYESENKHSVA,EASQRES,QQYHRLPLS,0.45 0.48 0.02 0.17 0.40 0.43
KLMQSVLYESRNKNSVA,NASTRES,QQYHRLPLS,-0.17 -0.43 -0.09 -0.60 -0.24 -0.18
TISQSVLMTGLNRNSVA,QASERIE,QQYERLPLS,0.16 -0.17 -0.13 0.01 -0.01 0.19
KISQSVGYESRNKNSIA,NANQREQ,QQYHRLPLS,0.02 -0.07 -0.20 -0.26 -0.14 0.02
KLSQSVLYESRNKNSVA,HASTRED,QQYHQLPLS,0.24 -0.18 0.00 -0.04 -0.09 0.12
KVSQSKLYESRNKNSVA,DASTRES,QQYHRLPLS,0.47 0.28 0.26 0.20 0.36 0.29
KISQVFMMTGKNKNSVA,NALTRVS,QQYHRLPLS,0.10 0.17 -0.01 -0.26 0.12 0.13
KLPQSDLYESRNKNSVA,DASTRES,QQYHRLPLS,-0.28 -0.08 -0.22 -0.30 -0.10 -0.25
KLSQSQEYESRNKNSVA,NASTRLS,QQYHRLPLS,-0.19 -0.32 0.07 -0.45 -0.03 -0.19
TISQMSTLFSQSINNVA,EVSTRLV,QQYDRLPLM,1.56 1.23 1.00 1.14 1.24 1.48
KLQMSELPESRNKNSVA,WASLREL,QQYHRLPLS,1.27 0.88 0.55 1.11 0.45 1.27
TLTQSVGMESHNKNNVA,DLSTRGS,QQYHRLPLS,-0.26 -0.06 -0.05 -0.25 -0.24 -0.13

Extract of 3 entries:

CDR-L1	CDR-L2	CDR-L3	log10 Kd (nM) by replicate
KSSQSVLYEFRNTNSVA	WASTRIS	QTYHKLPLS	n.d. n.d. n.d. n.d. n.d. n.d.
HLSQSWLYESRNKNSVA	NASTRLS	QQYHRLPLS	0.18 0.04 0.09 -0.24 -0.01 -0.02
KLKYQADHYGMNWNNVA	QADIRAP	QQYNKLPLN	0.49 0.54 0.40 0.37 0.30 0.35